Experimental findings from paper PMC10812785, “Structures, Interactions and Activity of the N-Terminal Truncated Variants of Antimicrobial Peptide Thanatin” (Antibiotics, 2024) are described below.

The chains behind the UniProt entries cited, without tags or fusion partners. Residues count along the entry.
UniProt P0ADV1, 28-159: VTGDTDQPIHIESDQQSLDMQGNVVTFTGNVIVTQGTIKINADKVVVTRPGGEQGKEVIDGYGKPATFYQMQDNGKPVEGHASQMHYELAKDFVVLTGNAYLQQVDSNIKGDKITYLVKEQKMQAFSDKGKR

In assay [1] the test system is Acenobacter baumannii ATCC BAA-1798. Type of assay: cell-based, A. baumannii. The source says: (§1) Chemically synthesized PM15, PM15Y and PM15A peptides were obtained from GLBiochem^TM (Shanghai, China). Molecular weight of the peptides was confirmed by mass spectrometry. Bacterial strains were obtained from the American Type Culture Collection (ATCC, Manassas, VA, USA). Mueller–Hinton (MH) broth was purchased from Sigma-Aldrich^TM (Saint Louis, MO, USA) and Millipore-Sigma^TM (Saint Louis, MO, USA). 1-N-phenylnaphthylamine (NPN) and LPS (E. coli O111:B4) were purchased from Sigma Aldrich^TM.
(§2) Bacterial growth inhibition of PM15, PM15A and PM15Y peptides was estimated against a panel of bacterial strains, namely, E. coli ATCC25922, S. enterica ATCC 14028, K. pneumoniae ATCC 13883, A. baumannii ATCC BAA-1798, S. pyogenes ATCC 19615 and E. faecalis ATCC 29212, by using the broth dilution assay determining minimum inhibitory concentration (MIC). Typically, overnight bacterial cultures were grown to mid-log phase at 37 °C and then diluted in Mueller–Hinton (MH) broth to OD600 ~ 0.002. […] Bacterial inhibition was determined by absorbance of 96-well plates at OD600 nm by using a Cytation spectrophotometer (Agilent, Santa Clara, CA, USA). The minimum peptide concentration showing complete inhibition of bacterial growth was determined as the MIC value.

Assay [2] deals with E. coli cells. As to the kind of experiment: NPN fluorescence assay (outer-membrane permeabilization). The assay is classed as cell-based. To be noted: NPN 10 µM, peptide 1-16 µM, 10 mM sodium phosphate buffer, OD600~0.5, excitation 350 nm, emission 390-450 nm; Figure 1B. The protocol: Peptides induced in NPN fluorescence experiments were measured to define the extent of outer-membrane permeabilization of E. coli cells. NPN assay was carried out in a Cary Eclipse fluorescence spectrophotometer (Varian, Palo Alto, CA, USA) by using a quartz cuvette of 0.1 cm path-length. Mid-log-phase E. coli cells in LB media were centrifuged at 5000 rpm for 10 min and resuspended in 10 mM sodium phosphate buffer at an OD600~0.5. NPN (10 µM) fluorescence, excitation 350 nm, emission 390–450 nm, in bacterial cell suspension was obtained in the absence of peptide and in the presence of various concentrations, ranging from 1–16 µM, of peptides. The results were expressed as ΔF vs. peptide concentration in which the basal fluorescence was subtracted from the maximum intensity recorded for each peptide concentration.

The subject of assay [3] is E. coli cells. The experiment in a line: Zeta potential of E. coli cells (surface charge neutralization). The assay is classed as cell-based. Particulars: 10 mM sodium phosphate buffer, pH 7, Figure 1A; for change in zeta potential of E. coli cells, in words: peptide 2-32 μM, three replicates of 100 runs. The procedure:
All zeta potential measurements were performed on a Zeta Sizer Nano ZS (Malvern Instruments, Worcestershire, UK) equipped with a 633 nm He laser using zeta cells with gold electrodes. Typically, E. coli cells at a mid-log culture in LB media were harvested by centrifugation at 5000 rpm for 10 min and resuspended in 10 mM sodium phosphate buffer, pH 7. Zeta potential value of the bacterial cell suspension was determined for the free cells and with subsequent additions of peptide (2 μM to 32 μM). For each concentration, 100 runs were carried out and three replicates were executed.

Assay [4] can be described thus: ITC of peptide/LPS binding. Particulars: 10 mM sodium phosphate, pH 7.0, 37 °C; for Kd / ΔH: 1 mM peptide into 50 μM E. coli LPS (O111:B4), single site binding model; for TΔS / ΔG: LPS, determined indirectly from thermodynamics equations. Details: species or system E. coli.
From the text: as §1
(§3) ITC experiments were conducted by using a MicroCal ITC 200 calorimeter. Samples, LPS and peptides, were prepared in 10 mM sodium phosphate buffer, pH 7.0. LPS (50 µM) was placed in the sample cell, while the syringe contained 1 mM of peptide. In an individual experiment, 2.0 μL of peptide was titrated, with a total of 20 titrations, into the sample cell containing LPS at 37 °C with stirring speed adjusted to 750 rpm. For ITCs of peptides/LptAm, samples were prepared in 50 mM sodium phosphate buffer, 150 mM NaCl, pH 7.0. 25 μM of LptAm was loaded into the sample cell, whereas 250 μM of PM15 and PM15Y was placed in the syringe. ITC titrations were performed with 20 injections of 2 µL of peptide into sample cells at 25 °C with a stirring speed of 750 rpm. ITC data were analyzed by using a single site binding model in MicroCal Origin 5.0 software to obtain the association constant (Ka) and enthalpy change (ΔH). Other binding parameters, namely, dissociation constant (Kd), Gibbs free energy (ΔG) and entropy change (TΔS), were determined indirectly from thermodynamics equations.

Assay [5] concerns the target T1, LptAm protein of E. coli (Escherichia coli, UniProt P0ADV1).
T1 construct: Expression and purification of LptAm protein (residues 28–159), with a six His-tag ([…]) at the C-terminus; made in house; host or cells: E. coli BL21
The experiment in a line: ITC of peptide/LptAm binding. To be noted: 50 mM sodium phosphate, 150 mM NaCl, pH 7.0, 25 °C. The procedure: as §3
Expression and purification of LptAm protein (residues 28–159), with a six His-tag (SGRVEHHHHHH) at the C-terminus, was carried out by using a previously established method. Briefly, plasmid DNA coding for LptAm gene was transformed into E. coli BL21 competent cells in LB agar plates containing 100 µg/mL of ampicillin. Protein production from expressing E. coli was induced by 1 mM isopropyl β-d-1-thiogalactopyranoside (IPTG) at an OD600 value of 0.6–0.8 at 18 °C for 18 h. The bacteria cells were centrifuged at 6000 rpm, 4 °C for 15 min and resuspended in a lysis buffer (100 mM HEPES, 500 mM NaCl, 10 mM imidazole, pH 8). Bacterial cells were lysed by sonication on ice at 25 Amp for 1 h, the lysate was centrifuged at 18,000 rpm, 4 °C for 30 min to remove cellular debris. The cell supernatant was applied through Ni-NTA (Qiagen, Germantown, TN, USA) beads thrice before washing it with increasing concentrations of imidazole. […]

For assay [6], the system named is Salmonella enterica ATCC 14028. The assay is classed as cell-based.
From the text: as §1, §2

Assay [7] deals with representative strains of Gram-negative and Gram-positive bacteria. The experiment in a line: Bacterial growth inhibition (MIC), panel of strains. The assay is classed as cell-based. To be noted: aged, about 5 years, MH broth.
From the text: as §1, §2

A value given as a limit tells only on which side of the number the result lay.

As usually defined, the Kd is the constant that tells how readily two partners part at equilibrium. A lower Kd goes with tighter binding.

For the molecule `CC[C@H](C)[C@H](NC(=O)[C@H](C)N)C(=O)N[C@H](C(=O)N[C@@H](Cc1ccc(O)cc1)C(=O)N[C@H]1CSSC[C@@H](C(=O)N[C@@H](CCC(N)=O)C(=O)N[C@@H](CCCNC(=N)N)C(=O)N[C@@H](CCSC)C(=O)O)NC(=O)[C@H](CCCCN)NC(=O)CNC(=O)[C@H]([C@@H](C)O)NC(=O)[C@H](CCCNC(=N)N)NC(=O)[C@H](CCCNC(=N)N)NC(=O)[C@H](CC(N)=O)NC1=O)[C@@H](C)CC` [PM15A], the MIC in assay [1] is recorded as >16 (>16) µM. In addition, the “NPN fluorescence increase (ΔF), in words” value in assay [2] is recorded as “higher increase in NPN fluorescence compared to the parent PM15 peptide”. Besides, the “change in zeta potential of E. coli cells, in words” value in assay [3] was “increase in zeta potential in a dose-dependent manner”. In assay [4], the affinity, expressed as Kd, was 330 nM; the ΔH was -8.74 kcal/mol; the “LPS binding, in words” value is recorded as “relatively high-affinity interactions with LPS compared to the parent peptide PM15”; the TΔS worked out at 0.47 kcal/mol. For the same molecule, the ΔG in assay [4] was -9.21 kcal/mol.
`CC[C@H](C)[C@H](NC(=O)[C@@H](NC(=O)[C@@H](N)Cc1ccc(O)cc1)[C@@H](C)CC)C(=O)N[C@@H](Cc1ccc(O)cc1)C(=O)N[C@@H](CS)C(=O)N[C@@H](CC(N)=O)C(=O)N[C@@H](CCCNC(=N)N)C(=O)N[C@@H](CCCNC(=N)N)C(=O)N[C@H](C(=O)NCC(=O)N[C@@H](CCCCN)C(=O)N[C@@H](CS)C(=O)N[C@@H](CCC(N)=O)C(=O)N[C@@H](CCCNC(=N)N)C(=O)N[C@@H](CCSC)C(=O)O)[C@@H](C)O` [PM15Y]: the MIC in assay [1] is >16 (>16) µM. The ΔH in assay [5] (250 μM peptide into 25 μM LptAm, single site binding model) is -11.79 kcal/mol. The “LptAm binding, in words” value in assay [5] was “bind to LptAm with high affinity”. The TΔS in assay [5] (LptAm, determined indirectly from thermodynamics equations) is -2.49 kcal/mol. The MIC in assay [6] is given as >16(>16) µM. Moreover, the “NPN fluorescence increase (ΔF), in words” value in assay [2] is listed as “higher increase in NPN fluorescence compared to the parent PM15 peptide”. In assay [3], the “change in zeta potential of E. coli cells, in words” value is given as “increase in zeta potential in a dose-dependent manner”. For the same molecule, the “surface charge neutralization compared to the other peptides, in words” value in assay [3] (at lower doses, 4-16 µM) is “higher surface charge neutralization compared to PM15 and PM15A peptides”. Further, in assay [7], the “bacterial growth inhibition, in words” value was “able to inhibit growth of all the bacterial strains except for S. enterica”. Moreover, in assay [4], the dissociation constant Kd turned out to be 280 nM; the ΔH is -11.79 kcal/mol; the “LPS binding, in words” value was “relatively high-affinity interactions with LPS compared to the parent peptide PM15”; the TΔS is -2.49 kcal/mol. Moreover, in assay [4], the ΔG was -9.30 kcal/mol.
